Columns and labels:
UV4 [1] = assay: Hypersensitivity factor which is a ratio of IC50 of AA8 cells to that of the UV4 cells
[2] = Ratio of concentration of cell survival in aerobic conditions to that of hypoxic conditions after 1-hour exposure
UV4 [3] = assay: Concentration of the drug to give 10% cell survival under aerobic conditions using UV4 cells suspension; conditions: Cricetulus griseus

Row | SMILES | Ratio (UV4 [1]) | Ratio [2] | C10 (UV4 [3])
1 | C[N+](CCCl)(CCCl)Cc1ccc([N+](=O)[O-])cc1 | 2900 | 9 | 6 mM
2 | C[N+](CCCl)(CCCl)Cc1cccc([N+](=O)[O-])c1 | – | – | > 50 mM
3 | C[N+](CCCl)(CCCl)Cc1ccccc1[N+](=O)[O-] | 300 | 200 | 8 mM

From ChEMBL document CHEMBL1126786, “Nitrobenzyl mustard quaternary salts: a new class of hypoxia-selective cytotoxins showing very high in vitro selectivity” (1993)
